By UniProt entry, the sequences of proteins in these tests, tags left out.
UniProt P42336, whole entry: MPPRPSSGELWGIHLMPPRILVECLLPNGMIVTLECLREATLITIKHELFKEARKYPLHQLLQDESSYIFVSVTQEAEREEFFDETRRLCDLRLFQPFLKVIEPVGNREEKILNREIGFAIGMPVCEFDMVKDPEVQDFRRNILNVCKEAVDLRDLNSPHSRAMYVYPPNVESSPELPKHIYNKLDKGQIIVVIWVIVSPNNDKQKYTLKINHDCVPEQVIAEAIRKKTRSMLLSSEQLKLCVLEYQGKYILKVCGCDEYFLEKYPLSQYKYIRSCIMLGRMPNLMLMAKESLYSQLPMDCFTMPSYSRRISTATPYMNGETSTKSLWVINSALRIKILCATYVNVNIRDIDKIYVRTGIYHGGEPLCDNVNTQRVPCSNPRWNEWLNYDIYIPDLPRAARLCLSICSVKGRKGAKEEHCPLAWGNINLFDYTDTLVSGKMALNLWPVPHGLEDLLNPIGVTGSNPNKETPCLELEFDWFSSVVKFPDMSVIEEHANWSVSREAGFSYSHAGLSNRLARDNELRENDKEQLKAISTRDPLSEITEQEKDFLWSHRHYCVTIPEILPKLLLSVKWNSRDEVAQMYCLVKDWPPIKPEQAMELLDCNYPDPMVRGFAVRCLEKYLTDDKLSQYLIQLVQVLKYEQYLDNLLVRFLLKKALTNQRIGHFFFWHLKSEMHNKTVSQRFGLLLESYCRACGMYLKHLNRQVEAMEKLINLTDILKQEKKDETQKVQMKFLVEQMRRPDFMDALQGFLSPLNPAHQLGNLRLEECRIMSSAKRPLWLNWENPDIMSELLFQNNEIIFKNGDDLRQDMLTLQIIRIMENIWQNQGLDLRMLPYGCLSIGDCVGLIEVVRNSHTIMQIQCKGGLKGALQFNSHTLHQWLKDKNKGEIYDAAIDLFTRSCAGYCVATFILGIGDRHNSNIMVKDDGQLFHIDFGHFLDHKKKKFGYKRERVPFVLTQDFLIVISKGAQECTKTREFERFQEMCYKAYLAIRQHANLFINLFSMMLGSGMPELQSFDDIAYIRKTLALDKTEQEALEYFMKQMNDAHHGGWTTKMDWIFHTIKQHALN
UniProt P27986, whole entry partner: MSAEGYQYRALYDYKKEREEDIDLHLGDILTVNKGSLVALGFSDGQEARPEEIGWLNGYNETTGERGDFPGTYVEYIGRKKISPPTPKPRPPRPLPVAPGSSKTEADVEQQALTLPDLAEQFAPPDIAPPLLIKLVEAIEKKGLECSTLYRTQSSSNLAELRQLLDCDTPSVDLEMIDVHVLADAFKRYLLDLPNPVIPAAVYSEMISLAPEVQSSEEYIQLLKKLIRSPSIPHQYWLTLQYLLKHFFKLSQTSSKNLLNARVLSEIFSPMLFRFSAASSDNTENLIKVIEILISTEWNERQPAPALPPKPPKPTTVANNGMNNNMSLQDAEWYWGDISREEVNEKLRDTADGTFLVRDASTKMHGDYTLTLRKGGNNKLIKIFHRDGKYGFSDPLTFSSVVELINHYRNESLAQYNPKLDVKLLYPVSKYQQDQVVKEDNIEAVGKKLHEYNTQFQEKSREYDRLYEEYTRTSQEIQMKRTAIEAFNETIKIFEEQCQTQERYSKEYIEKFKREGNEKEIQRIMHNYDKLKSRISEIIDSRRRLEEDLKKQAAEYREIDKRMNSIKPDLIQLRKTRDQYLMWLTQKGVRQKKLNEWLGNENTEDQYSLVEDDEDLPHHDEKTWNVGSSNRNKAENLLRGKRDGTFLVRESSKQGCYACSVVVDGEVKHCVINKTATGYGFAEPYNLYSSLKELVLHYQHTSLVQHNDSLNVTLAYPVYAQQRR

According to patent US9284315B2, “Three-ring PI3K and/or mTOR inhibitor” (XUANZHU PHARMA CO., LTD., priority 2011, dated 2016):

Columns and labels:
[1] = In vivo pharmacokinetics in rats, intravenous bolus injection (IV); details: 2 mg/kg
mTOR = mTOR (Homo sapiens (Human), UniProt P42345); assay: Method 2 binding assay, mTOR kinase tracer 314; details: read-out: mTOR IC50
PI3Kα = PI3Kα (Homo sapiens (Human), UniProt P42336); assay: Method 2 binding assay, PI3Kα kinase tracer 1710; details: read-out: PI3Kα IC50
[2] = In vivo pharmacokinetics in rats, gavage (PO)

With “9-(6-methoxypyridin-3-yl)-3-methyl-1-(piperidin-4-yl)-3,4-dihydropyrimido[5,4-c][1,5]naphthyridin-2(1H)-one hydrochloride” the AUC [1] was 217.7 ng·h/mL, the Cl_obs [1] was 123 mL/min/kg and the “T ½” value [1] was 3.47 h. For the same substance, the Vss_obs [1] was 36.26 L/kg, the IC50 (mTOR) was 91.9 nM and the IC50 (PI3Kα) was 8.6 nM. It also gave a F % ([2]; PO 4 mg/kg vs IV 2 mg/kg) of 59%, an AUC ([2]; PO, 4 mg/kg) of 258 ng·h/mL and a Cmax ([2]; PO, 4 mg/kg) of 46.8 ng/mL. It also gave a Tmax ([2]; PO, 4 mg/kg) of 4.67 h.

Only a part of the results on these compounds is given; other tests are left out.
